Measured values: US20260382772A1, “KETO-AMIDE-BASED FIBROBLAST ACTIVATION PROTEIN-TARGETED LIGAND LINKED TO AN IMAGING OR THERAPEUTIC AGENT, COMPOSITIONS, AND METHODS OF USE” (published 2026)

Tested on: 4T1 tumor bearing mice
Assay: Biodistribution of ^177Lu-FAP8-PEG3-IP-DOTA in 4T1 tumor bearing mice
Text: Balb/c mice were inoculated on their shoulders with 1×10^5 cells of 4T1 cells, whereas nu/nu mice were inoculated on their shoulders with 5×10^6 cells of HT29 (a human colorectal adenocarcinoma cell line), KB (tumor cell line HeLa), MDA-MB-231 (a human breast cancer cell line), or HEK-FAP cells.
For the first study, two different tumor-bearing mice (4T1 and HEK-hFAP) were intravenously injected with [^111In] In-FAP8-PEG3-IP-DOTA (In-Conjugate 24′) (0.74 MBq/mouse, 1-10 nmol/mouse) or [^177Lu] Lu-FAP8-PEG3-IP-DOTA (Lu-Conjugate 24′) (7.4 MBq/mouse, 0.3 nmol-5 nmol/mouse).
At indicated time points (1 hour, 4 hours, 24 hours, 72 hours, 120 hours, and 168 hours post-injection), mice were assessed and/or euthanized by CO2 asphyxiation and organs of interest were harvested, excess blood was rinsed, dried, weighed, and then analyzed by gamma counter, and the results were decay corrected and presented as the percentage of the injected dose per gram of tissue (% ID/g)±standard deviation (SD).
Dose escalation analyses of [^177Lu] Lu-FAP8-PEG3-IP-DOTA (Lu-Conjugate 24′) in 4T1 tumor-bearing mice was performed (n=3) with 0.3 nmol/mouse (FIG. 45A) or 1.0 nmol/mouse (FIG. 45B) of Lu-Conjugate 24′ provided with constant radioactivity (0.74 MBq/mouse) and measured at different times (1 hour, 4 hours, 24 hours, 72 hours, 120 hours, and 168 hours post-injection).

## COc1ccc(CNC(=O)C(=O)[C@@H]2CC(F)(F)CN2C(=O)CNC(=O)c2ccnc3ccc(OCC(=O)NCCOCCOCCOCCNC(=O)[C@H](CCCCNC(=O)CCCc4ccc(I)cc4)NC(=O)CN4CCN(CC(=O)O)CCN(CC(=O)O)CCN(CC(=O)O)CC4)cc23)cc1OC.[Lu+3]
1.0 nmol/mouse, 72 h
  Bone marrow uptake: 0.13 ± 0.22 % ID/g
  Heart uptake: 1.26 ± 0.58 % ID/g
  Intestine uptake: 0.79 ± 0.19 % ID/g
  Kidneys uptake: 1.19 ± 0.02 % ID/g
  Liver uptake: 4.90 ± 1.61 % ID/g
  Lungs uptake: 0.99 ± 0.50 % ID/g
  Spleen uptake: 1.98 ± 0.19 % ID/g
  Stomach uptake: 0.86 ± 0.35 % ID/g
  Tumor uptake: 6.99 ± 1.70 % ID/g
  Tumor/Blood: 4.74 ± 1.07
  Tumor/Bone marrow: 16.96 ± 0.1
  Tumor/Kidneys: 5.88 ± 1.22
1.0 nmol/mouse, 120 h
  Blood uptake: 0.88 ± 0.13 % ID/g
  Bone marrow uptake: 1.02 ± 0.67 % ID/g
  Heart uptake: 0.56 ± 0.18 % ID/g
  Intestine uptake: 0.42 ± 0.18 % ID/g
  Kidneys uptake: 1.36 ± 0.67 % ID/g
  Liver uptake: 6.36 ± 1.2 % ID/g
  Lungs uptake: 1.29 ± 0.54 % ID/g
  Spleen uptake: 2.97 ± 0.59 % ID/g
  Stomach uptake: 0.40 ± 0.12 % ID/g
  Tumor uptake: 4.68 ± 0.85 % ID/g
  Tumor/Blood: 5.29 ± 0.27
  Tumor/Bone marrow: 5.80 ± 2.27
  Tumor/Kidneys: 3.93 ± 1.23
1.0 nmol/mouse, 168 h
  Blood uptake: 0.5 ± 0.1 % ID/g
  Bone marrow uptake: 0.33 ± 0.30 % ID/g
  Heart uptake: 1.16 ± 0.15 % ID/g
  Intestine uptake: 0.46 ± 0.15 % ID/g
  Kidneys uptake: 1.56 ± 0.73 % ID/g
  Liver uptake: 2.43 ± 0.40 % ID/g
  Lungs uptake: 0.7 ± 0.51 % ID/g
  Spleen uptake: 1.9 ± 0.45 % ID/g
  Stomach uptake: 0.33 ± 0.05 % ID/g
  Tumor uptake: 5 ± 1.57 % ID/g
  Tumor/Blood: 11.22 ± 4.12
  Tumor/Bone marrow: 11.38 ± 2.95
  Tumor/Kidneys: 3.60 ± 1.29
5.0 nmol/mouse, 1 h
  Blood uptake: 28.96 ± 12.08 % ID/g
  Bone marrow uptake: 1.15 ± 0.38 % ID/g
  Heart uptake: 2.46 ± 1.42 % ID/g
  Intestine uptake: 1.38 ± 0.30 % ID/g
  Kidneys uptake: 4.83 ± 2.4 % ID/g
  Liver uptake: 5.32 ± 0.90 % ID/g
  Lungs uptake: 3.90 ± 0.62 % ID/g
  Spleen uptake: 2.27 ± 1.76 % ID/g
  Stomach uptake: 1.35 ± 0.32 % ID/g
  Tumor uptake: 9.6 ± 4.95 % ID/g
  Tumor/Blood: 0.33 ± 0.08
  Tumor/Bone marrow: 8.54 ± 318
  Tumor/Kidneys: 2.09 ± 0.92
5.0 nmol/mouse, 4 h
  Blood uptake: 4.65 ± 1.32 % ID/g
  Bone marrow uptake: 1.50 ± 0.717 % ID/g
  Heart uptake: 1.79 ± 0.79 % ID/g
  Intestine uptake: 1.67 ± 0.42 % ID/g
  Kidneys uptake: 4.94 ± 2.88 % ID/g
  Liver uptake: 3.09 ± 0.66 % ID/g
  Lungs uptake: 2.66 ± 0.71 % ID/g
  Spleen uptake: 1.37 ± 1.15 % ID/g
  Stomach uptake: 1.97 ± 0.31 % ID/g
  Tumor uptake: 10.97 ± 1.43 % ID/g
  Tumor/Blood: 2.54 ± 0.76
  Tumor/Bone marrow: 8.24 ± 2.53
  Tumor/Kidneys: 2.67 ± 1.00
5.0 nmol/mouse, 24 h
  Blood uptake: 6.12 ± 4.78 % ID/g
  Bone marrow uptake: 0.46 ± 0.34 % ID/g
  Heart uptake: 0.72 ± 0.68 % ID/g
  Intestine uptake: 1.30 ± 0.72 % ID/g
  Kidneys uptake: 1.53 ± 1.17 % ID/g
  Liver uptake: 2.99 ± 1.46 % ID/g
  Lungs uptake: 2.07 ± 1.38 % ID/g
  Spleen uptake: 1.13 ± 0.456 % ID/g
  Stomach uptake: 1.17 ± 1.13 % ID/g
  Tumor uptake: 6.13 ± 2.89 % ID/g
  Tumor/Blood: 2.16 ± 1.97
  Tumor/Bone marrow: 21.03 ± 11.54
  Tumor/Kidneys: 5.82 ± 2.82
5.0 nmol/mouse, 72 h
  Blood uptake: 1.1775 ± 0.38 % ID/g
  Bone marrow uptake: 0.44 ± 0.31 % ID/g
  Heart uptake: 0.22 ± 0.08 % ID/g
  Intestine uptake: 0.62 ± 0.26 % ID/g
  Kidneys uptake: 1.48 ± 0.57 % ID/g
  Liver uptake: 2.42 ± 0.63 % ID/g
  Lungs uptake: 0.67 ± 0.50 % ID/g
  Spleen uptake: 1.54 ± 0.74 % ID/g
  Stomach uptake: 0.45 ± 0.17 % ID/g
  Tumor uptake: 6.36 ± 0.96 % ID/g
  Tumor/Blood: 6.31 ± 2.73
  Tumor/Bone marrow: 20.78 ± 9.88
  Tumor/Kidneys: 5.02 ± 1.79
5.0 nmol/mouse, 120 h
  Blood uptake: 0.73 ± 0.25 % ID/g
  Bone marrow uptake: 0.66 ± 0.74 % ID/g
  Heart uptake: 0.67 ± 0.40 % ID/g
  Intestine uptake: 0.69 ± 0.20 % ID/g
  Kidneys uptake: 0.40 ± 0.09 % ID/g
  Liver uptake: 1.74 ± 0.68 % ID/g
  Lungs uptake: 0.36 ± 0.17 % ID/g
  Spleen uptake: 0.84 ± 0.78 % ID/g
  Stomach uptake: 0.45 ± 0.26 % ID/g
  Tumor uptake: 3.71 ± 1.59 % ID/g
  Tumor/Blood: 4.39 ± 1.39
  Tumor/Bone marrow: 11.04 ± 9.17
  Tumor/Kidneys: 7.54 ± 3.45
5.0 nmol/mouse, 168 h
  Blood uptake: 0.34 ± 0.27 % ID/g
  Bone marrow uptake: 0.63 ± 0.75 % ID/g
  Heart uptake: 0.48 ± 0.31 % ID/g
  Intestine uptake: 0.26 ± 0.15 % ID/g
  Kidneys uptake: 0.302 ± 0.39 % ID/g
  Liver uptake: 1.42 ± 1.00 % ID/g
  Lungs uptake: 0.92 ± 0.26 % ID/g
  Spleen uptake: 0.74 ± 0.29 % ID/g
  Stomach uptake: 0.25 ± 0.13 % ID/g
  Tumor uptake: 1.94 ± 0.27 % ID/g
  Tumor/Blood: 7.08 ± 4.78
  Tumor/Bone marrow: 3.07 ± 1.35
  Tumor/Kidneys: 5.95 ± 2.92
